## scFv variants of Ab-14 (heavy chain) against a SARS-CoV-2 spike peptide

Values reported by Li et al. 2023, doi:10.1038/s41467-023-39022-2 (FLAb copy).

Antigen: PDVDLGDISGINAS, a 14-residue peptide of the SARS-CoV-2 spike HR2 region.

The variants keep the light chain, the linker and the frameworks of Ab-14 (scFv order VH, the linker GGGGSGGGGSGGGGS, VL).
VH: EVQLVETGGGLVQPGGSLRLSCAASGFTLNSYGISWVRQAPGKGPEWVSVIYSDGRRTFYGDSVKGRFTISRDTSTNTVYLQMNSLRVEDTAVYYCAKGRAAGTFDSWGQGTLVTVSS
VL: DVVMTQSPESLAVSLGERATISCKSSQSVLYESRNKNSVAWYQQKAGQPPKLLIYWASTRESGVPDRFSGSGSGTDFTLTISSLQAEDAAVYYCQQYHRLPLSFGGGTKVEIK

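Phage display of a naive human antibody library on the peptide gave the parent. These sequences belong to a second round, designed from the earlier measurements on random variants of the parent. Group labels follow the data file (Ctrl: baseline library sampled from a position-specific scoring matrix, with some repeated check sequences; Rand: our label for a block that the file lists under HC and that is probably the random mutants of the ten best first-round binders; GP: Gaussian process model; GPLM: also part of the Gaussian process libraries; HC: hill climbing; Gen: genetic algorithm; Gibbs: Gibbs sampling; a sequence that several methods proposed may carry one label only). AlphaSeq pools MATa yeast showing the antibodies with MATalpha yeast showing the peptide. After mating in shaken culture at 30 °C for 16 h, diploids were selected and their barcode pairs sequenced. Read counts were normalised to the haploid input and turned into Kd by a linear fit to BCL2-family pairs of known affinity, for each replicate. Each pool was mated in six replicate cultures.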

Changes read parent residue, position, new residue, counted from the first residue of the VH shown. This list holds designs with at most six substitutions. Numbers give log10(Kd / nM), so 0 is 1 nM and 3 is 1 µM. Smaller is tighter. Replicates are averaged; those with no signal do not enter the mean. Where no diploid with the target was found in any replicate, the entry reads "nd": below detection, most likely a poor binder, though not proof of it. Nonspecific signal, from three strains lacking the peptide, appeared in 1% of pairings of all heavy chain designs, centred on 2.08 (5% of these signals below 0.84); values are not corrected for it. In the paper, a design with two or fewer of six values counts as a poor binder. A sequence measured in both rounds can read differently, since the two assays cover different ranges. The parent sequence was in this pool as ten entries: three were never detected, three once, and four in most replicates, with averages from 0.34 to 2.37.

The variant T28N+G61A+R100A [GPLM_Gen] showed 0.51 (6 of 6 replicates). For N30M+S31Q+S63A+G99L+R100Y+A101I [Ctrl], the assay gave nd (0 of 6 replicates). The variant G61Q+S63D [Ctrl] gave 1.88 (1 of 6 replicates). The variant T28E+S31E+F59A [GPLM_Gibbs] gave 0.03 (6 of 6 replicates). With T28D+G61S+R100W+A102G [GP_HC] the result was 2.11 (1 of 6 replicates). With S53A+S107P [Ctrl] the result was nd (0 of 6 replicates). The variant F27E+S53A+G61S+R100K [GP_HC] showed 1.28 (6 of 6 replicates). For T28S+S31E+R57K+A101T [GPLM_Gen], the assay gave 0.21 (4 of 6 replicates).

The variant N30D+G33H+F105A+D106L+S107P [Rand] gave nd (0 of 6 replicates). For T28D+R56K+A101H [GPLM_Gibbs], the assay gave 2.17 (5 of 6 replicates). The variant G61K+R100Y+T104K+D106E [Ctrl] showed nd (0 of 6 replicates). The variant S31E+I51T+G61T+V64M+G99V+A101F [Rand] gave nd (0 of 6 replicates). For S31E+G61S+A101E+D106F [GP_HC], the assay gave 0.82 (1 of 6 replicates). With N30Q+A101E [Ctrl] the result was 0.22 (3 of 6 replicates). With T28S+S31E+R56K+R100Q+A101T [GP_Gibbs] the result was -0.22 (4 of 6 replicates). The variant T28I+G61D+R100K+A101L [GP_HC] gave 1.40 (6 of 6 replicates).

With G61T+T104F [Ctrl] the result was nd (0 of 6 replicates). The variant R100K+S107V [Ctrl] showed 0.63 (1 of 6 replicates). The variant S31M+S53D+D106P [Ctrl] showed nd (0 of 6 replicates). For T28D+L29T+T104W+D106N [Rand], the assay gave 2.60 (2 of 6 replicates). For S31D+R100K+A101T+S107T [GP_Gibbs], the assay gave 0.26 (6 of 6 replicates). With T28G+G61R+R100Q+A101T [GP_Gibbs] the result was 1.94 (6 of 6 replicates). The variant L29I+R100V [Ctrl] gave 2.04 (6 of 6 replicates). For T28D+S63E+R100Q [GP_Gibbs], the assay gave 0.65 (6 of 6 replicates).

The variant T28S+G61S+R100Q+S107D [GP_Gen] showed 0.58 (6 of 6 replicates). The variant G61V+R100Q+A101L [GPLM_Gen] gave -0.17 (1 of 6 replicates). The variant G26W+S31E+A101T [GP_Gen] showed 1.14 (1 of 6 replicates). For N30E+S53A+D106E [GPLM_Gen], the assay gave 0.18 (6 of 6 replicates). For G26K+T28D+F59A [GP_Gen], the assay gave 0.78 (6 of 6 replicates). With I34Y+A101V+A102P [Ctrl] the result was 2.06 (1 of 6 replicates). For T28D+S31T+G61S+R100Q [GP_Gibbs], the assay gave -0.18 (6 of 6 replicates). The variant T28H+G61I+R100E [GPLM_Gibbs] showed 1.79 (5 of 6 replicates).

The variant T28D+G61K+R100W [GPLM_Gibbs] gave 1.40 (6 of 6 replicates). The variant T28D+F59V+A101N [GP_Gen] showed -0.03 (6 of 6 replicates). For R56K+S63R+R100E+S107T [GP_Gibbs], the assay gave nd (0 of 6 replicates). The variant G26K+T28S+G61S+A101Q [GP_Gen] showed 1.35 (6 of 6 replicates). The variant R56W+G61T [Ctrl] gave 1.49 (2 of 6 replicates).

Repeated from above, the 5 best binders with a signal in all replicates:

Variant T28D+S31T+G61S+R100Q [GP_Gibbs] gave -0.18 (6 of 6 replicates).
Variant T28D+F59V+A101N [GP_Gen] gave -0.03 (6 of 6 replicates).
Variant T28E+S31E+F59A [GPLM_Gibbs] gave 0.03 (6 of 6 replicates).
Variant N30E+S53A+D106E [GPLM_Gen] gave 0.18 (6 of 6 replicates).
Variant S31D+R100K+A101T+S107T [GP_Gibbs] gave 0.26 (6 of 6 replicates).